This is an account of results in ChEMBL document CHEMBL5143599, “Unraveling the Design and Discovery of c-Jun N-Terminal Kinase Inhibitors and Their Therapeutic Potential in Human Diseases” (J Med Chem, 2022).

Chains of the proteins cited; added tags and fusions are not shown. Lines headed by an entry give the natural chain unless they say otherwise; changes in a name come on top.
UniProt P53779: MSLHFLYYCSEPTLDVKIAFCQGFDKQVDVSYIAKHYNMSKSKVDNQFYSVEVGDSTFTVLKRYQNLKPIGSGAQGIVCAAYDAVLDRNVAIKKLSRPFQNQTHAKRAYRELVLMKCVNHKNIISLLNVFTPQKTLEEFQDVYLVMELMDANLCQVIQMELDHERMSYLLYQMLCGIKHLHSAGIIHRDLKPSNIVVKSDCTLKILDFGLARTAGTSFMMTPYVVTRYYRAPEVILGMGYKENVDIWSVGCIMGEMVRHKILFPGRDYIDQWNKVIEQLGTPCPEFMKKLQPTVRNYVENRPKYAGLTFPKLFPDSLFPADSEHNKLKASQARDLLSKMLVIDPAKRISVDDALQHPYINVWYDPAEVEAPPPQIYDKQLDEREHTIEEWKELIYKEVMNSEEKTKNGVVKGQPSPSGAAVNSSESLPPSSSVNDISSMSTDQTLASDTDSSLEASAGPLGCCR

The target in this assay is Mitogen-activated protein kinase 10 (Homo sapiens, UniProt P53779). As to the kind of experiment: Inhibition of human JNK3 using ATF2 as substrate incubated for 40 mins in presence of Mg-ATP mix by scintillation counter analysis.

Consider `NC(=O)N1Cc2nc(-c3ccc(Cl)c(Cl)c3)n(-c3ccnc(N[C@H]4CCN(C(=O)C5CC5)C4)n3)c2C1`, for which the IC50 amounted to 2.9 nM.
